# Data reported in PubChem BioAssay AID1205 (EPA DSSTox, 2008).
# Activity calls are given as the source filed them.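 How the source made its calls: active means tumour findings in long-term animal cancer tests in more than one sex, species or organ; inactive means no tumour finding and more than one negative test.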
# Assay: DSSTox (CPDBAS) Carcinogenic Potency Database Summary MultiCellCall Results
# Details: animal carcinogenicity bioassays, multi-cell call summary
# Text: The Carcinogenic Potency Database (CPDB) is a unique and widely used international resource of the results of over 6500 chronic, long-term animal cancer tests on over 1500 chemical substances. The CPDB provides easy access to the bioassay literature, with qualitative and quantitative analyses of both positive and negative experiments that have been published over the past 50 years in the general literature and by the National Cancer Institute/National Toxicology Program. The CPDB standardizes the diverse literature of cancer bioassays that vary widely in protocol, histopathological examination and nomenclature, and in the published author's choices of what information to provide in their papers. Results are reported in the CPDB for tests in rats, mice, hamsters, dogs, and nonhuman primates, and are based on the most positive result among all experiments for each sex-species. The DSSTox CPDBAS (all species) file incorporates data from the CPDB Summary Tables for the full list of over 1500 chemical substances tested in at least one species. A summary MultiCellCall, based on experimental bioassay results of one or more species, is provided in the DSSTox CPDBAS file (see Source URL) for more than 1150 chemical substances. […]
compound,measurement,value
O=[N+]([O-])C(Cl)(Cl)Cl,outcome,inactive; multisex inactive
